In PubChem BioAssay (NCATS):
This is a selection; strong and weak results do not stand in their true shares. Results filed as inconclusive are left out. Some salts or complexes appear as unconnected parts, following the source record. Calls of active or inactive are those of the source. Unless noted, the call rests on the fitted dose curve; in most records, active means well fitted curve in the direction sought with a large enough effect in the repeat runs; inconclusive means weak or mixed curves; inactive means no such curve, though single readings can be large; an effect the other way counts as inactive or inconclusive.

Sequences of proteins named here, by UniProt entry; tags and fusion partners are left off.
UniProt P10635, whole entry: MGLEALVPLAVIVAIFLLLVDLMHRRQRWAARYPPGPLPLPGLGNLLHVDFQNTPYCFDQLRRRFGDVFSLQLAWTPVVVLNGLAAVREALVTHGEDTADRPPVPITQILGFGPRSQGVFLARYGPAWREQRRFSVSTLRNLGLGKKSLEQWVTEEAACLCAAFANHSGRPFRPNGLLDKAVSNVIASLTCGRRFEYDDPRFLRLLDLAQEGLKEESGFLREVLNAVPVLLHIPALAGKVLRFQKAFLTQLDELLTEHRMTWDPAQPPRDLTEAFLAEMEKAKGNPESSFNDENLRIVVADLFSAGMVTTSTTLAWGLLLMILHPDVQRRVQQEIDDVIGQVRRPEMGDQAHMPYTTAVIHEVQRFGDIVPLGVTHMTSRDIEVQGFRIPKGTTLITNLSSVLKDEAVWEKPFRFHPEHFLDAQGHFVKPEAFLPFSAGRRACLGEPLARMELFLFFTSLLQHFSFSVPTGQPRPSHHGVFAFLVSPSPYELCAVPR
UniProt P08684, whole entry: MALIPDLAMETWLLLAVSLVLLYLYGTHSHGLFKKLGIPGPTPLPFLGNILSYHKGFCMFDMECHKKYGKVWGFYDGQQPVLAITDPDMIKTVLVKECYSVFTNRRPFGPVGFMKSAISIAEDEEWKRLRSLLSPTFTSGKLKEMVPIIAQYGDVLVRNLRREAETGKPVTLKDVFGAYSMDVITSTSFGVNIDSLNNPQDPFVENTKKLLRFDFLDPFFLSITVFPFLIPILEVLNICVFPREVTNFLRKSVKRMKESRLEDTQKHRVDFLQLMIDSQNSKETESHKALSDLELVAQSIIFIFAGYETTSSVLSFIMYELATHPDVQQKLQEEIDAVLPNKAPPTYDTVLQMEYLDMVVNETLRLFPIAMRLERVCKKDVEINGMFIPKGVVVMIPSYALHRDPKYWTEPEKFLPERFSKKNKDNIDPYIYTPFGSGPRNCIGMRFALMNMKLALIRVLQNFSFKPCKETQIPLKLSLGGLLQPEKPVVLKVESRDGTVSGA
UniProt P11712, whole entry: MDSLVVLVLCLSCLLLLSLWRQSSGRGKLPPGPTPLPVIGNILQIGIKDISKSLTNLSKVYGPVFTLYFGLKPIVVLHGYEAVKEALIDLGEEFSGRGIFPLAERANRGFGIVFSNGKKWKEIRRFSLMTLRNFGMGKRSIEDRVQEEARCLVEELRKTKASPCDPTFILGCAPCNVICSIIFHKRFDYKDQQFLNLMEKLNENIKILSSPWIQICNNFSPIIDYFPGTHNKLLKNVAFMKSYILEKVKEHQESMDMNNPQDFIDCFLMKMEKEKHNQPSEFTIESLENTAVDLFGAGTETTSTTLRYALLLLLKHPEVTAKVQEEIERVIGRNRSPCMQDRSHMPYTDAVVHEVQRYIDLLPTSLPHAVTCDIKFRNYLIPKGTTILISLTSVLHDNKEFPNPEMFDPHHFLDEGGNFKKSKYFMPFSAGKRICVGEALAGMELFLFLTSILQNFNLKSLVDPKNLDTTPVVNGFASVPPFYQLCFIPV
UniProt O95398, whole entry: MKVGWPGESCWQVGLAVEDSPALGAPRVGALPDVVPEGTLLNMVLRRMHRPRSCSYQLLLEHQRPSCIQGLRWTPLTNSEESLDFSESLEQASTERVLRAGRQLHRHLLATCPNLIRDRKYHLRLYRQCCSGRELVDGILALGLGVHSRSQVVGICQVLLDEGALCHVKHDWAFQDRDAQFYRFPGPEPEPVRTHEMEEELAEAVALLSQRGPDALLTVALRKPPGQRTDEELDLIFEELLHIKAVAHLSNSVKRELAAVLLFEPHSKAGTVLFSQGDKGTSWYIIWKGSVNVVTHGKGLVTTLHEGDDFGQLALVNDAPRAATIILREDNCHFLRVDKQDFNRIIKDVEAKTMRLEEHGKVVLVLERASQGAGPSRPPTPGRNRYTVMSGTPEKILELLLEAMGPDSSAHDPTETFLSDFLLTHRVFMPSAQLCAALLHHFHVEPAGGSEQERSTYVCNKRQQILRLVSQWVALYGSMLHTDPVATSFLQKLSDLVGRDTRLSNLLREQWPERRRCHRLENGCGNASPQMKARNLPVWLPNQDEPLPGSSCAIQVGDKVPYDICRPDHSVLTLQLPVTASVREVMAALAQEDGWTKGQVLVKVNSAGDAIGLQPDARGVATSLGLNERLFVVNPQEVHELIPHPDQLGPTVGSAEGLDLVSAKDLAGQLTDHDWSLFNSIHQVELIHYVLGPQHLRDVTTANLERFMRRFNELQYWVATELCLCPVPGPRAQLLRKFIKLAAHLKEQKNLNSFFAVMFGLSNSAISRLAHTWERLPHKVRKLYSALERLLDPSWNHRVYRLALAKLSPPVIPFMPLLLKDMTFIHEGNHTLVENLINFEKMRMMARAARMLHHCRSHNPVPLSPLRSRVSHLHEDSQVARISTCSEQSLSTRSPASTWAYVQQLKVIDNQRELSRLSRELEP
UniProt Q8WZA2, whole entry: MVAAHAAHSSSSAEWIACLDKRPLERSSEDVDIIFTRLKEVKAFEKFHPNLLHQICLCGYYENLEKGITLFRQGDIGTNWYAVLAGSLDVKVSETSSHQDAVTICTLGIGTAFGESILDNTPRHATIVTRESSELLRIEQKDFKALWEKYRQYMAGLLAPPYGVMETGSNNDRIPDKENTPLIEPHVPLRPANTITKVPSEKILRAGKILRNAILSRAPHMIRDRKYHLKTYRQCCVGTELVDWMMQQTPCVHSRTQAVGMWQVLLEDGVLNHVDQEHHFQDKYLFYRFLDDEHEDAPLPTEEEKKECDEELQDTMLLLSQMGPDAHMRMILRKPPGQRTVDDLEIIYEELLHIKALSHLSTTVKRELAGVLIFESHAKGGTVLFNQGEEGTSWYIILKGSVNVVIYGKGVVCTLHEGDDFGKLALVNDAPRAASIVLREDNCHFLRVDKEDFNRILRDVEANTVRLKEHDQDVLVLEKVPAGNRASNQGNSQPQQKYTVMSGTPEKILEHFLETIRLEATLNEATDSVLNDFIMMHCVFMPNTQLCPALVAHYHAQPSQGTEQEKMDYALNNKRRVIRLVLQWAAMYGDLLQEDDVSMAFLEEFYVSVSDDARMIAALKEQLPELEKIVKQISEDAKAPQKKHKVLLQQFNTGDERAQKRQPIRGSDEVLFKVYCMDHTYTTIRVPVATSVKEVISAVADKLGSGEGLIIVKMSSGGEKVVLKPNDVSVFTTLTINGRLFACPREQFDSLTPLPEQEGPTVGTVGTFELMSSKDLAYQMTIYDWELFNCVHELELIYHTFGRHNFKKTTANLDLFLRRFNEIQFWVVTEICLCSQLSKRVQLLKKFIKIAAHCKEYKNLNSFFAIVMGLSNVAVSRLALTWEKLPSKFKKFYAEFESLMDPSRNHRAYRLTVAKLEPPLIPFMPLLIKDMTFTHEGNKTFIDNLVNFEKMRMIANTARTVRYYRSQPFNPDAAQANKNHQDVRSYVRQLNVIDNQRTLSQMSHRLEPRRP

Experiments:
[1] = Primary qHTS for inhibitors of nuclear receptor binding SET domain protein 2 (NSD2) in an RCH-ACV wild type WT cells (2C) (AID 1645877; active means well fitted curve in the direction sought with a large enough effect; an effect the other way counts as inactive or inconclusive; further: on the % scale 0 is the no-effect control and ±100 the full control effect; nearly all actives have a fitted effect of over 70% in size); settings: RCH-ACV NSD2 WT (2C) viability, CellTiter-Glo, 72 h; at 44.9 µM (top of the series) unless noted
Description: Assay Provider: Jonathan D. Licht, MD
University of Florida College of Medicine, Gainesville, FL
Mutations in epigenetic regulators are common in relapsed pediatric acute lymphoblastic leukemia (ALL). Here, we uncovered the mechanism underlying the relapse of ALL driven by an activating mutation of the NSD2 histone methyltransferase (p.E1099K). […] Correction of this mutation restored glucocorticoid sensitivity. The transcriptional response to glucocorticoids was blocked in NSD2 mutant cells due to depressed glucocorticoid receptor (GR) levels and the failure of glucocorticoids to autoactivate GR expression. […] Pre-treatment of NSD2 p.E1099K cell lines and PDX samples with PRC2 inhibitors reversed glucocorticoid resistance in vitro and in vivo.
High-throughput drug screening of isogenic RCH-ACV cell lines was performed at the National Center for Advancing Translational Science (NCATS), National Institutes of Health as previously described (1). Briefly, isogenic RCH-ACV NSD2 p.E1099K mutant (9B) and WT cells (2C) were plated at 500 cells/well in a 1536-well plate with a 72-hour incubation with compounds prior to addition of CellTiter-Glo to assess cell viability. NCATS libraries screened include: NPC, MIPE 5.0, Kinase and NPACT. To determine compound activity in the qHTS assay, the concentration-response data for each sample was plotted and modeled by a four-parameter logistic fit yielding IC50 and efficacy (maximal response) values. The area under the curve (AUC) of the dose-response curve ensures both efficacy (magnitude of cell killing) and potency (concentration that elicits cell killing) are accounted for in the analysis of activity.
1. Tobie D Lee, Olivia W Lee, Kyle R Brimacombe, Lu Chen, Rajarshi Guha, Sabrina Lusvarghi, Bethilehem G Tebase, Carleen Klumpp-Thomas, Robert W Robey, Suresh V Ambudkar, Min Shen, Michael M Gottesman, Matthew D Hall. A High-Throughput Screen of a Library of Therapeutics Identifies Cytotoxic Substrates of P-glycoprotein. Mol Pharmacol. 2019, Nov;96(5):629-640.

[2] = A High-Content qHTS Against Drug Library for the Identification of Small Molecules that Inhibit DYT1 Early Onset Primary Dystonia-Associated Cell Pathology (AID 1645839; calls by dose curve); settings: HEK293 Flp-In EGFP-delE TorsinA, punctate imaging, 48 h; at 46.1 µM (top of the series) unless noted
Method in brief: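 In this high-content image screen, delE TorsinA mislocalization in inducible Flp-In 293 cells is scored as %pathology, with cell count serving as the counterscreen. Compound exposure lasts 48 h under tetracycline induction in reduced-serum medium.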

[3] = target: Cytochrome P450 2D6 (Homo sapiens) (UniProt P10635); experiment: Cytochrome P450 family 2 subfamily D member 6 (CYP2D6) small molecule antagonists: luciferase biochemical (cell-free) qHTS assay (AID 1645840); further: nearly all actives have a fitted effect of over 55% in size; further: potency means the concentration at half of the fitted maximal effect; on activity change, negative = inhibition: on the % scale 0 is the no-effect control and ±100 the full control effect
Method in brief: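 P450-Glo luminescent screen: recombinant CYP2D6 enzyme–proluciferin substrate mix preincubated with compound 10 min at room temperature, then NADPH regeneration added for 1 h at room temperature. Detection reagent added for 20 min; luciferin light read as relative luminescence units.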

[4] = target: Cytochrome P450 3A4 (Homo sapiens) (UniProt P08684); experiment: Cytochrome P450 family 3 subfamily A member 4 (CYP3A4) small molecule antagonists: luciferase qHTS assay (AID 1645841); further: nearly all actives have a fitted effect of over 45% in size; further: potency means the concentration at half of the fitted maximal effect
[5] = target: Cytochrome P450 2C9 (Homo sapiens) (UniProt P11712); experiment: Cytochrome P450 family 2 subfamily C member 9 (CYP2C9) small molecule antagonists: luciferase qHTS assay (AID 1645842; further: on the % scale 0 is the no-effect control and ±100 the full control effect; nearly all actives have a fitted effect of over 55% in size); settings: P450-Glo CYP2C9 enzyme assay, luciferin luminescence; at 57.4 µM (top of the series) unless noted
Method in brief: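 Luminescence, after 20 min with luciferin detection reagent, reflected CYP2C9 turnover during a 1 h NADPH-driven reaction at 37C. Enzyme-substrate mix contained 0.4% bovine serum albumin and was preincubated with compound 10 min at room temperature.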

[6] = Primary qHTS for inhibitors of nuclear receptor binding SET domain protein 2 (NSD2) in an isogenic RCH-ACV NSD2 p.E1099K mutant (9B) (AID 1645876; active means well fitted curve in the direction sought with a large enough effect; an effect the other way counts as inactive or inconclusive; further: on the % scale 0 is the no-effect control and ±100 the full control effect; nearly all actives have a fitted effect of over 70% in size); settings: RCH-ACV (leukaemia line) NSD2 E1099K (9B) viability, CellTiter-Glo, 72 h; at 44.9 µM (top of the series) unless noted
[7] = Primary qHTS for small molecule stabilizers of the endoplasmic reticulum resident proteome: Secreted ER Calcium Modulated Protein (SERCaMP) assay (AID 1508630; active means well fitted curve in the direction sought with a large enough effect; an effect the other way counts as inactive or inconclusive; further: on the % scale 0 is the no-effect control and ±100 the full control effect); settings: SH-SY5Y GLuc-SERCaMP (Gaussia luciferase released on ER calcium loss) secretion, thapsigargin, luminescence; at 38.4 µM (top of the series)
Method in brief: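 GLuc-SERCaMP-expressing SH-SY5Y cells, pretreated 16 h with compound, are challenged with thapsigargin to empty ER calcium stores; after 4 h, coelenterazine is added directly to the medium and luminescence is imaged.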

[8] = target: Rap guanine nucleotide exchange factor 3 (Homo sapiens) (UniProt O95398); experiment: Confirmatory qHTS for agonist of cAMP-regulated guanine nucleotide exchange factor 3 (EPAC1) (AID 1645881; active means well fitted curve in the direction sought with a large enough effect; an effect the other way counts as inactive or inconclusive;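 further: EPAC1 catalysed release of BODIPY-GDP from Rap1B seen as fluorescence loss; nearly all actives have a fitted effect of over 75% in size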); settings: EPAC1 Rap1B BODIPY-GDP exchange fluorescence, 100% = cAMP control response; at 154 µM (top of the series)
[9] = target: Rap guanine nucleotide exchange factor 4 (Homo sapiens) (UniProt Q8WZA2); experiment: Confirmatory qHTS for agonist of cAMP-regulated guanine nucleotide exchange factor 4 (EPAC2) (AID 1645884; active means well fitted curve in the direction sought with a large enough effect; an effect the other way counts as inactive or inconclusive;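 further: nucleotide exchange releases bodipy-GDP from Rap1 and this lowers its fluorescence; on the % scale 0 is the no-effect control and ±100 the full control effect; nearly all actives have a fitted effect of over 65% in size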); settings: EPAC2 GEF activity, Rap1B-BODIPY-GDP fluorescence, percent relative to cAMP agonist control; at 154 µM (top of the series)
[10] = target: Rap guanine nucleotide exchange factor 4 (Homo sapiens) (UniProt Q8WZA2); experiment: Confirmatory qHTS for antagonist of cAMP-regulated guanine nucleotide exchange factor 4 (EPAC2) (AID 1645885; active means well fitted curve in the direction sought with a large enough effect; an effect the other way counts as inactive or inconclusive; further: nearly all actives have a fitted effect of over 25% in size); settings: EPAC2 Rap1B-BODIPY-GDP exchange fluorescence, biochemical; at 114 µM (top of the series)

For `C/C1=C2/N=C(C(CC(N)=O)C2(C)CCC(=O)NCC(C)OP(=O)([O-])OC2C(CO)OC(n3cnc4cc(C)c(C)cc43)C2O)C2(C)N=C(/C(C)=C3N=C(/C=C4N=C1C(CCC(N)=O)C\4(C)C)C(CCC(N)=O)C/3(C)CC(N)=O)C(CCC(N)=O)C2(C)CC(N)=O.[C-]#N.[Co]` (configuration not stated), the activity change, negative = cell killing [1] was inactive: -28.6%.

In the case of `OCCSCCO`, the % pathology change, negative = correction [2] is reported as inactive: 1.9%, the Potency [3] is reported as “inactive” and the Potency [4] is reported as “inactive”. The activity change, negative = inhibition [5] was inactive: 16.9%, the activity change, negative = viability loss [6] was inactive: 6.98% and the activity change, negative = cell killing [1] was inactive: 9.55%.

With `CCOP(=O)(CC)Oc1ccc([N+](=O)[O-])cc1` (configuration not stated) the activity change, negative = inhibition [7] was inactive: -10.6%, the % pathology change, negative = correction [2] was inactive: 2.2% and the Potency [3] was active: 0.977 µM. For the same compound, the Potency [4] was “inactive”, the activity change, negative = inhibition [5] was inactive: -2.1% and the activity change, negative = cell killing [1] was inactive: -25.3%.

For `C/C1=C2N=C(/C=C3N=C(/C(C)=C4\[N-][C@@](C)([C@@H]5N=C1[C@](C)(CCC(=O)NC[C@@H](C)OP(=O)([O-])O[C@H]1[C@@H](O)[C@@H](n6cnc7cc(C)c(C)cc76)O[C@@H]1CO)[C@H]5CC(N)=O)[C@@](C)(CC(N)=O)[C@@H]4CCC(N)=O)[C@@](C)(CC(N)=O)[C@@H]\3CCC(N)=O)C(C)(C)[C@@H]/2CCC(N)=O.[C-]#N.[Co+3]`, the % pathology change, negative = correction [2] was inactive: 0.893%, the Potency [3] was “inactive” and the Potency [4] was “inactive”. The activity change, negative = inhibition [5] was inactive: 14.6%, the activity change, negative = viability loss [6] was inactive: -8.28% and the activity change, negative = cell killing [1] was inactive: -16.8%.

For `O=[N+]([O-])c1cccc([N+](=O)[O-])c1`, the % pathology change, negative = correction [2] was inactive: 13.7% [at 91.7 µM], the Potency [3] was active: 35 µM and the Potency [4] was active: 17.5 µM. For the same compound, the activity change, negative = inhibition [5] was inactive: 8.37% [at 115 µM].

With `O=[N+]([O-])c1cc([N+](=O)[O-])c(C(F)(F)F)c([N+](=O)[O-])c1O` the activation [8] was inactive: 1.47%, the activation [9] was inactive: 0% and the outcome [10] was “inactive”.

For `C/C1=C2N=C(/C=C3N=C(/C(C)=C4\N=C(C(CC(N)=O)C4(C)CCC(=O)NCC(C)OP(=O)([O-])OC4C(CO)OC(n5cnc6cc(C)c(C)cc65)C4O)C4(C)N=C1C(CCC(N)=O)C4(C)CC(N)=O)C(CCC(N)=O)C\3(C)C)C(CCC(N)=O)C/2(C)CC(N)=O.[C-]#N.[Co]` (configuration not stated), the activity change, negative = viability loss [6] was inactive: -20.3% [at 17.3 µM] and the activity change, negative = cell killing [1] was inactive: -17.6% [at 17.3 µM].

In the case of `Cc1cccc([N+](=O)[O-])c1[N+](=O)[O-]`, the activity change, negative = inhibition [7] is reported as inactive: -14.1% and the activity change, negative = inhibition [5] is reported as inactive: 28.3% [at 115 µM].

For `O=[N+]([O-])OCC(CO[N+](=O)[O-])(CO[N+](=O)[O-])CO[N+](=O)[O-]`, the Potency [3] was “inactive” and the activity change, negative = inhibition [5] was inactive: -26.5%.
